Laboratory results as given in patent publication EP4837907A1, “NOVEL COMPOUND USED AS CBP/P300 INHIBITOR, AND PHARMACEUTICAL COMPOSITION FOR PREVENTING OR TREATING CANCER, INFLAMMATORY DISORDERS, OR AUTOIMMUNE DISEASES COMPRISING SAME AS ACTIVE INGREDIENT” (dated 2026).

Sequences of proteins named here, by UniProt entry; tags and fusion partners are left off. Residues count along the entry.
UniProt Q92793, 1085-1192 limits assumed: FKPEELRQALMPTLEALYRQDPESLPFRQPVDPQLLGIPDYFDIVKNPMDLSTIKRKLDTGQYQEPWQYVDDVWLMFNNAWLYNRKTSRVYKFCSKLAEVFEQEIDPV

Legend:
BRD4 (BD1) protein = BRD4 (BD1) protein (Homo sapiens, UniProt O60885); assay: BRD4 inhibitory activity, TR-FRET assay of the BRD4 bromodomain; details: read-out: BRD4 (BD1) IC50, BRD4 (BD1) protein 7.5 nM, Ac-H4 peptide 15 nM, room temperature 2 hours
Experimental: BRD4 inhibitory activity was measured using a time resolved fluorescence resonance energy transfer (TR-FRET) experiment to verify the activity of BRD4 bromodomain.
(§1) The assay was performed in a final volume of 14 µl, optimized based on a CREBBP time resolved fluorescence resonance energy transfer (TR-FRET) assay kit (BPS Bioscience, cat. 32613) to maximize an assay window, and performed in a final volume of 14 µl, while maximizing the assay window. A TR-FRET fluorescence acceptor and a Tb donor were diluted in an assay buffer containing 2-[4-(2-hydroxyethyl)piperazin-1-yl]ethanesulfonic acid (hereafter, referred to as an assay buffer, BPS Bioscience, cat. 33012), and 3 µl of each solution was transferred to all wells of a white 384-low-volume well plate (Corning, cat. 4513). 2 µl of 4X Ac-H4 peptide (final concentration 15 nM) was transferred to high control wells and test wells. Each compound was prepared at 10 concentration points by serially diluting 3-fold from the highest concentration in a dimethyl sulfoxide solvent. The compound at each concentration was then diluted in the assay buffer to prepare a diluted compound solution that was 4-fold more concentrated than the final concentration. 2 µl of each compound or dimethyl sulfoxide prepared in this way was distributed into an assay plate so that the final test concentration was a minimum of 0.5 µM to a maximum of 10 µM (final DMSO concentration 1%). 6 µL of 1X assay buffer was added to low control wells and 2 µl was added to high control and test wells. Then, 2 µl of 4X BRD4 (BD1) protein (final concentration 7.5 nM, BPS bioscience, cat 31040) was added to initiate a PPI reaction. The plate was reacted at room temperature for 2 hours before measuring the signal. The TR-FRET signal was measured using an EnVision Multilabel plate reader (PerkinElmer; Mirror LNACE/DELFIA Dual/Bias). For data analysis, the values of each well were obtained using the TR-FRET ratio ((Signal 665 nm/Signal 615 nm) × 20000). Data analysis was performed using the TR-FRET ratio ((Signal 665 nm/Signal 615 nm) × 20000). Data were reported as percent inhibition compared to control wells based on the following equation: %Activity = ((FRETcompound - FRETLow av)/(FRETHigh av - FRETLow av)) × 100. IC50 analysis was determined by standard 4 parameter curve fitting according to an algorithm using GraphPad Prism 7.0 (GraphPad Software Inc., La Jolla, CA, USA). All data are expressed as mean ± standard error of the mean (SEM).

CBP BRD protein = CBP BRD protein (Homo sapiens, UniProt Q92793); assay: CBP inhibitory activity, TR-FRET assay of the CBP bromodomain; details: read-out: CBP BRD IC50, CBP BRD protein 7.5 nM, Ac-H4 peptide 85 nM, room temperature 2 hours
Experimental: A time resolved fluorescence resonance energy transfer (TR-FRET) experiment was used to verify the activity of CBP bromodomain.
as §1, with “Bioscience, cat. 32619) to maximize” for “Bioscience, cat. 32613) to maximize”, “(final concentration 85 nM) was” for “(final concentration 15 nM) was”, “µM (final dimethyl sulfoxide concentration 1%).” for “µM (final DMSO concentration 1%).”, “of 4X CBP BRD protein (final” for “of 4X BRD4 (BD1) protein (final”, “bioscience, cat 31128) was added” for “bioscience, cat 31040) was added”, “obtained using a TR-FRET ratio” for “obtained using the TR-FRET ratio”

| IC50 (BRD4 (BD1) protein) [nM] | IC50 (CBP BRD protein) [nM] | SMILES |
| --- | --- | --- |
| 500 to 5000 | < 500 | COc1ccc2c(-c3nc4c(N(C)CCC5CCN(C6CCCC6)CC5)ncnc4n3-c3ccc4c(c3)n(C)c(=O)n4C)c[nH]c2c1 |
| > 5000 | 500 to 5000 | Cc1ccc2c(-c3nc4ccc(S(C)(=O)=O)cc4n3-c3ccc4c(c3)n(C)c(=O)n4C)c[nH]c2c1 |
| 500 to 5000 | < 500 | CNS(=O)(=O)c1ccc2nc(-c3c[nH]c4cc(-c5cnn(C)c5)ccc34)n(-c3ccc4c(c3)n(C)c(=O)n4C)c2c1 |
| 500 to 5000 | 500 to 5000 | Cn1c(=O)n(C)c2cc(-n3c(-c4c[nH]c5cccc(F)c45)nc4ccc(S(=O)(=O)NCCN5CCOCC5)cc43)ccc21 |
| > 5000 | 500 to 5000 | CNS(=O)(=O)c1ccc2nc(-c3cccc4cccnc34)n(-c3ccc4c(c3)n(C)c(=O)n4C)c2c1 |
